# Measured values reported in US6733779B2, “Method of treating benign prostatic hyperplasia and other benign prostate conditions” (priority 1999, dated 2004).
# Experiment: Side effects observed in the treated patients (informal trials)
# Settings: 40 mg daily continued beyond fourteen days; normally subside after the sustaining dosage is instituted
smiles,measurement,value
"CC1=C(/C=C/C(C)=C/C=C/C(C)=C\C(=O)O)C(C)(C)CCC1 [Accutane, 13-cis retinoic acid]",side effects of the initial treatment,"tenderness at sites of old injuries to the fibro-musculo-skeletal system, dry skin, chapped lips, dry eyes, and dry nose, tend to occur"
